{"sequences": {"note": "Protein sequences, listed by entry. Tags and fused reporters are not part of them. Residues count along the entry.", "UniProt P35613, 138-325": "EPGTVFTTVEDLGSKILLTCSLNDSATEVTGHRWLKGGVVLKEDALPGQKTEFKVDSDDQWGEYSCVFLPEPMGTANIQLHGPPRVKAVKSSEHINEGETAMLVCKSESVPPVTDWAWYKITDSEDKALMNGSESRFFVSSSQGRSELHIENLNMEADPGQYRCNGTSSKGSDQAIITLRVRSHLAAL"}, "source": "paper PMC5309799", "experiment_in_all_cases": "SPR", "key": {"[1]": {"target": "Basigin ectodomain, AVEXIS bait or prey and biotinylated SPR ligand (human) (UniProt P35613)"}, "[2]": {"target": "P113 Y1-N653, biotinylated SPR ligand (P. falciparum (3D7 strain))"}, "[3]": {"target": "P113 Y1-K197, biotinylated SPR ligand (P. falciparum (3D7 strain))"}, "[4]": {"target": "P113 entire ectodomain, AVEXIS bait or prey and biotinylated SPR ligand (P. falciparum (3D7 strain))"}}, "data": [{"substance": "RH5FL, purified monomeric SPR analyte (from UniProt Q8IFM5 25-526) (natural protein)", "values": [{"measurement": "koff", "setting": "[1]", "result": 0.244, "unit": "s⁻¹"}, {"measurement": "kon", "setting": "[1]", "result": 182000, "unit": "M⁻¹ s⁻¹"}, {"measurement": "koff", "setting": "[2]", "result": 0.412, "unit": "s⁻¹"}, {"measurement": "kon", "setting": "[2]", "result": 753000, "unit": "M⁻¹ s⁻¹"}, {"measurement": "koff", "setting": "[3]", "result": 0.307, "unit": "s⁻¹"}, {"measurement": "kon", "setting": "[3]", "result": 284000, "unit": "M⁻¹ s⁻¹"}, {"measurement": "koff", "setting": "[4]", "result": 0.231, "unit": "s⁻¹"}, {"measurement": "kon", "setting": "[4]", "result": 780000, "unit": "M⁻¹ s⁻¹"}]}]}
